This test addresses Cytochrome P450 1A2 (Homo sapiens, UniProt P05177). Briefly: Inhibition of CYP1A2 (unknown origin)-mediated demethylation of resorufin methyl ether after 5 mins by spectrofluorimetric analysis. In kind it is ADME. In short, it runs like this: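 Microsomal P450 (final 5 nM) in 0.1 M potassium phosphate pH 7.6 with MgCl2; resorufin ether or coumarin substrate final 5 μM from DMSO stock; inhibitor added in DMSO, DMSO alone for controls. Reaction started with NADPH regenerating system (NADP+, glucose 6-phosphate, G6P dehydrogenase) at 37 °C; product formation followed fluorimetrically as progress curves.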

Sequences of proteins named here, by UniProt entry; tags and fusion partners are left off.
UniProt P05177, whole entry: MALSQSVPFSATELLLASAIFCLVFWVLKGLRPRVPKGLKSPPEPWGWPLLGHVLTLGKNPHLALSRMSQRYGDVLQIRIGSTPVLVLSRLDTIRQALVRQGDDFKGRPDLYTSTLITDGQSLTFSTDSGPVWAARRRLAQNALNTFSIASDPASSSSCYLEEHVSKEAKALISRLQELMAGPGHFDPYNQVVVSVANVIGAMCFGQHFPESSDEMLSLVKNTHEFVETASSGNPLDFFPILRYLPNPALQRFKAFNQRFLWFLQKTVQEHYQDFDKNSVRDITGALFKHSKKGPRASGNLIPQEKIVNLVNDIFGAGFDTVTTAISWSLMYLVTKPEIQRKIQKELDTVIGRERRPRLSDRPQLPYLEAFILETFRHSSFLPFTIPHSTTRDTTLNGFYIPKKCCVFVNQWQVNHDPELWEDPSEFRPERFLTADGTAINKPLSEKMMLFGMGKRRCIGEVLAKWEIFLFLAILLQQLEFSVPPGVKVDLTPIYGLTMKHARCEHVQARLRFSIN

This note sets out measurements from ChEMBL document CHEMBL2346505, “Pyranoflavones: a group of small-molecule probes for exploring the active site cavities of cytochrome P450 enzymes 1A1, 1A2, and 1B1” (J Med Chem, 2013).

In the case of `O=c1cc(-c2ccccc2)oc2c3c(ccc12)OCC=C3`, the IC50 was determined as 59 nM.
